{
  "sequences": {"note": "Amino acid sequences for entries named in this document (tags omitted). A change or cut given only in a name is not applied to a line headed by its entry.", "UniProt P28482, whole entry": "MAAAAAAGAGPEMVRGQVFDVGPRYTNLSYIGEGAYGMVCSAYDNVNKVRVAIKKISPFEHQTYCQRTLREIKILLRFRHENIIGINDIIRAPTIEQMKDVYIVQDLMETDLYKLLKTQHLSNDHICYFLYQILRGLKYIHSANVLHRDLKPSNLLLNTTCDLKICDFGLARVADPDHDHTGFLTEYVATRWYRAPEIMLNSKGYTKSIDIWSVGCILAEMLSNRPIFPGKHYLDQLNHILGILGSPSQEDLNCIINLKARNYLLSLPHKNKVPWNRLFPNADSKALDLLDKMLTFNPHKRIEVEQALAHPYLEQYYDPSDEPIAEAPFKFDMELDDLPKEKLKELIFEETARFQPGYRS", "UniProt Q02750, whole entry": "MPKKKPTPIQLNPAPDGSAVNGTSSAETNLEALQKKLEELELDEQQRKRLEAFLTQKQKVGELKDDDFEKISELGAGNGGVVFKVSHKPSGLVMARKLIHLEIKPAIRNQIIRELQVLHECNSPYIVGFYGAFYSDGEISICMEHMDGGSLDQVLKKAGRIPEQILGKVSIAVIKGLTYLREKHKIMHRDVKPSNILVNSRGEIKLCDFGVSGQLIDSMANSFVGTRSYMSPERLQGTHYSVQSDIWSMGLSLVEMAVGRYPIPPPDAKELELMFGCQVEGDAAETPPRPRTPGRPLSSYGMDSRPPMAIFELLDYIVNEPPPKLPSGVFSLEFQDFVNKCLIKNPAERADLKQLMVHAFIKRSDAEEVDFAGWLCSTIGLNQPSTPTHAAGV"},
  "source": "patent US20100004234A1",
  "about": "“SPECIFIC KINASE INHIBITORS” (Kosan Biosciences Incorporated, priority 2004, published 2010)",
  "key": {"[1]": {"tested_on": "SKOV3 (ovarian cancer cell line, wild-type B-Raf)", "assay": "Cell proliferation assay", "assay_type": "cell-based", "conditions": "read-out: Cell Line IC50 SKOV3, Table 7"}, "[2]": {"tested_on": "HT29 (Human colon, B-Raf V599E)", "assay": "Cell proliferation assay (Cell Titer Glo)", "assay_type": "cell-based", "conditions": "read-out: Cell Line IC50 HT29; Table 7; HT29 human colon cancer, V600E B-Raf"}, "[3]": {"tested_on": "COLO829 (Human melanoma, B-Raf V599E)", "assay": "Cell proliferation assay (Cell Titer Glo)", "assay_type": "cell-based", "conditions": "read-out: Cell Line IC50 COLO829, Table 7, V600E B-Raf"}, "ERK2": {"molecular_target": "ERK2 (UniProt P28482)", "conditions": "Table 7"}, "MEK1": {"molecular_target": "MEK1 (Homo sapiens, UniProt Q02750)", "conditions": "cited from earlier work"}},
  "data": [
    {"smiles": "C[C@H]1C/C=C\\C(=O)[C@@H](O)[C@@H](O)C[C@H]2O[C@@H]2c2cc(OCCCN3CCOCC3)cc(O)c2C(=O)O1", "values": [
      {"measurement": "IC50", "setting": "[1]", "value": 0.86, "unit": "µM"},
      {"measurement": "IC50", "setting": "[2]", "value": 0.29, "unit": "µM"},
      {"measurement": "IC50", "setting": "[3]", "value": 0.047, "unit": "µM"}
    ]},
    {"smiles": "C[C@H]1C/C=C\\C(=O)[C@@H](O)[C@@H](O)C[C@H]2O[C@@H]2c2cc(OCCCN3CCN(C)CC3)cc(O)c2C(=O)O1", "values": [
      {"measurement": "ERK2 Inhibition kinact.", "setting": "ERK2", "value": "5 ± 1 × 10^−3 sec^−1"},
      {"measurement": "Ki", "setting": "ERK2; read-out: ERK2 Inhibition Ki", "value": 3.1, "unit": "µM"},
      {"measurement": "IC50", "setting": "[2]", "value": 0.21, "unit": "µM"},
      {"measurement": "IC50", "setting": "[3]", "value": 0.042, "unit": "µM"}
    ]},
    {"smiles": "COc1cc(O)c2c(c1)/C=C/C[C@@]1(O)C(C=CC(=O)[C@H]1O)[C@H](C)OC2=O", "note": "(some centres unmarked)", "values": [
      {"measurement": "IC50", "setting": "MEK1", "value": 0.059, "unit": "µM"}
    ]}
  ]
}
